Legend:
sigma-1 receptor (S1R) [1] = details: read-out: KI S1R; ref 4 Pal A et al. (2007) Molecular Pharmacology 72:921-933; cited from earlier work
Sigma-1 receptor (S1R) [2] = biological target: Sigma-1 receptor (S1R) (Cavia porcellus, UniProt Q60492); assay: Saturation binding of [3H]-; details: 37°C, tissue membranes

Protein sequences, listed by entry. Tags and fused reporters are not part of them. Lines headed by an entry give the natural chain unless they say otherwise; changes in a name come on top.
UniProt Q60492, whole entry: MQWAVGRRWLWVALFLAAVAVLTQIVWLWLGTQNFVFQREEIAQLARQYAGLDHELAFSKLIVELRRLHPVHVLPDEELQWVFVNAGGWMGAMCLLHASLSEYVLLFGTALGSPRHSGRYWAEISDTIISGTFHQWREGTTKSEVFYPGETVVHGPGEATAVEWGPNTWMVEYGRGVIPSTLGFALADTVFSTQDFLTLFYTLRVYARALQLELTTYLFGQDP

CC(Cc1ccc(C(C)(C)C)cc1)CN1C[C@@H](C)O[C@@H](C)C1 (some centres unmarked) [Fenpropimorph]
Ki (sigma-1 receptor (S1R) [1]): 9.3 nM

CC(C)=CCN1CC[C@]2(C)c3cc(O)ccc3C[C@H]1[C@H]2C [[^3H]-(+)-pentazocine]
time to reach equilibrium (Sigma-1 receptor (S1R) [2]): at least 90 min

Reference: PMC4941945 (Current protocols in pharmacology / editorial board, S.J. …, 2015)
